Results: patent US11166931B2, “Induction of arteriogenesis with an NO (nitric oxide) donor” (G. Pohl-Boskamp GmbH & Co. KG, priority 2012, dated 2021)

System: Sprague-Dawley rats
Experiment: Collateral diameters in the ROI, coronary microvascular imaging with micro-CT
Details: rat, in vivo

O=[N+]([O-])OCC(CO[N+](=O)[O-])O[N+](=O)[O-] [NTG, nitroglycerin]
collateral diameters / collateral growth compared to controls (in words): significantly enlarged collateral arteries
